# Measurements as given in patent US9732094B2, “Arylquinazolines” (Merck Patent GmbH, priority 2013, dated 2017).
# Chains of the proteins cited; added tags and fusions are not shown.
# UniProt P78527, whole entry: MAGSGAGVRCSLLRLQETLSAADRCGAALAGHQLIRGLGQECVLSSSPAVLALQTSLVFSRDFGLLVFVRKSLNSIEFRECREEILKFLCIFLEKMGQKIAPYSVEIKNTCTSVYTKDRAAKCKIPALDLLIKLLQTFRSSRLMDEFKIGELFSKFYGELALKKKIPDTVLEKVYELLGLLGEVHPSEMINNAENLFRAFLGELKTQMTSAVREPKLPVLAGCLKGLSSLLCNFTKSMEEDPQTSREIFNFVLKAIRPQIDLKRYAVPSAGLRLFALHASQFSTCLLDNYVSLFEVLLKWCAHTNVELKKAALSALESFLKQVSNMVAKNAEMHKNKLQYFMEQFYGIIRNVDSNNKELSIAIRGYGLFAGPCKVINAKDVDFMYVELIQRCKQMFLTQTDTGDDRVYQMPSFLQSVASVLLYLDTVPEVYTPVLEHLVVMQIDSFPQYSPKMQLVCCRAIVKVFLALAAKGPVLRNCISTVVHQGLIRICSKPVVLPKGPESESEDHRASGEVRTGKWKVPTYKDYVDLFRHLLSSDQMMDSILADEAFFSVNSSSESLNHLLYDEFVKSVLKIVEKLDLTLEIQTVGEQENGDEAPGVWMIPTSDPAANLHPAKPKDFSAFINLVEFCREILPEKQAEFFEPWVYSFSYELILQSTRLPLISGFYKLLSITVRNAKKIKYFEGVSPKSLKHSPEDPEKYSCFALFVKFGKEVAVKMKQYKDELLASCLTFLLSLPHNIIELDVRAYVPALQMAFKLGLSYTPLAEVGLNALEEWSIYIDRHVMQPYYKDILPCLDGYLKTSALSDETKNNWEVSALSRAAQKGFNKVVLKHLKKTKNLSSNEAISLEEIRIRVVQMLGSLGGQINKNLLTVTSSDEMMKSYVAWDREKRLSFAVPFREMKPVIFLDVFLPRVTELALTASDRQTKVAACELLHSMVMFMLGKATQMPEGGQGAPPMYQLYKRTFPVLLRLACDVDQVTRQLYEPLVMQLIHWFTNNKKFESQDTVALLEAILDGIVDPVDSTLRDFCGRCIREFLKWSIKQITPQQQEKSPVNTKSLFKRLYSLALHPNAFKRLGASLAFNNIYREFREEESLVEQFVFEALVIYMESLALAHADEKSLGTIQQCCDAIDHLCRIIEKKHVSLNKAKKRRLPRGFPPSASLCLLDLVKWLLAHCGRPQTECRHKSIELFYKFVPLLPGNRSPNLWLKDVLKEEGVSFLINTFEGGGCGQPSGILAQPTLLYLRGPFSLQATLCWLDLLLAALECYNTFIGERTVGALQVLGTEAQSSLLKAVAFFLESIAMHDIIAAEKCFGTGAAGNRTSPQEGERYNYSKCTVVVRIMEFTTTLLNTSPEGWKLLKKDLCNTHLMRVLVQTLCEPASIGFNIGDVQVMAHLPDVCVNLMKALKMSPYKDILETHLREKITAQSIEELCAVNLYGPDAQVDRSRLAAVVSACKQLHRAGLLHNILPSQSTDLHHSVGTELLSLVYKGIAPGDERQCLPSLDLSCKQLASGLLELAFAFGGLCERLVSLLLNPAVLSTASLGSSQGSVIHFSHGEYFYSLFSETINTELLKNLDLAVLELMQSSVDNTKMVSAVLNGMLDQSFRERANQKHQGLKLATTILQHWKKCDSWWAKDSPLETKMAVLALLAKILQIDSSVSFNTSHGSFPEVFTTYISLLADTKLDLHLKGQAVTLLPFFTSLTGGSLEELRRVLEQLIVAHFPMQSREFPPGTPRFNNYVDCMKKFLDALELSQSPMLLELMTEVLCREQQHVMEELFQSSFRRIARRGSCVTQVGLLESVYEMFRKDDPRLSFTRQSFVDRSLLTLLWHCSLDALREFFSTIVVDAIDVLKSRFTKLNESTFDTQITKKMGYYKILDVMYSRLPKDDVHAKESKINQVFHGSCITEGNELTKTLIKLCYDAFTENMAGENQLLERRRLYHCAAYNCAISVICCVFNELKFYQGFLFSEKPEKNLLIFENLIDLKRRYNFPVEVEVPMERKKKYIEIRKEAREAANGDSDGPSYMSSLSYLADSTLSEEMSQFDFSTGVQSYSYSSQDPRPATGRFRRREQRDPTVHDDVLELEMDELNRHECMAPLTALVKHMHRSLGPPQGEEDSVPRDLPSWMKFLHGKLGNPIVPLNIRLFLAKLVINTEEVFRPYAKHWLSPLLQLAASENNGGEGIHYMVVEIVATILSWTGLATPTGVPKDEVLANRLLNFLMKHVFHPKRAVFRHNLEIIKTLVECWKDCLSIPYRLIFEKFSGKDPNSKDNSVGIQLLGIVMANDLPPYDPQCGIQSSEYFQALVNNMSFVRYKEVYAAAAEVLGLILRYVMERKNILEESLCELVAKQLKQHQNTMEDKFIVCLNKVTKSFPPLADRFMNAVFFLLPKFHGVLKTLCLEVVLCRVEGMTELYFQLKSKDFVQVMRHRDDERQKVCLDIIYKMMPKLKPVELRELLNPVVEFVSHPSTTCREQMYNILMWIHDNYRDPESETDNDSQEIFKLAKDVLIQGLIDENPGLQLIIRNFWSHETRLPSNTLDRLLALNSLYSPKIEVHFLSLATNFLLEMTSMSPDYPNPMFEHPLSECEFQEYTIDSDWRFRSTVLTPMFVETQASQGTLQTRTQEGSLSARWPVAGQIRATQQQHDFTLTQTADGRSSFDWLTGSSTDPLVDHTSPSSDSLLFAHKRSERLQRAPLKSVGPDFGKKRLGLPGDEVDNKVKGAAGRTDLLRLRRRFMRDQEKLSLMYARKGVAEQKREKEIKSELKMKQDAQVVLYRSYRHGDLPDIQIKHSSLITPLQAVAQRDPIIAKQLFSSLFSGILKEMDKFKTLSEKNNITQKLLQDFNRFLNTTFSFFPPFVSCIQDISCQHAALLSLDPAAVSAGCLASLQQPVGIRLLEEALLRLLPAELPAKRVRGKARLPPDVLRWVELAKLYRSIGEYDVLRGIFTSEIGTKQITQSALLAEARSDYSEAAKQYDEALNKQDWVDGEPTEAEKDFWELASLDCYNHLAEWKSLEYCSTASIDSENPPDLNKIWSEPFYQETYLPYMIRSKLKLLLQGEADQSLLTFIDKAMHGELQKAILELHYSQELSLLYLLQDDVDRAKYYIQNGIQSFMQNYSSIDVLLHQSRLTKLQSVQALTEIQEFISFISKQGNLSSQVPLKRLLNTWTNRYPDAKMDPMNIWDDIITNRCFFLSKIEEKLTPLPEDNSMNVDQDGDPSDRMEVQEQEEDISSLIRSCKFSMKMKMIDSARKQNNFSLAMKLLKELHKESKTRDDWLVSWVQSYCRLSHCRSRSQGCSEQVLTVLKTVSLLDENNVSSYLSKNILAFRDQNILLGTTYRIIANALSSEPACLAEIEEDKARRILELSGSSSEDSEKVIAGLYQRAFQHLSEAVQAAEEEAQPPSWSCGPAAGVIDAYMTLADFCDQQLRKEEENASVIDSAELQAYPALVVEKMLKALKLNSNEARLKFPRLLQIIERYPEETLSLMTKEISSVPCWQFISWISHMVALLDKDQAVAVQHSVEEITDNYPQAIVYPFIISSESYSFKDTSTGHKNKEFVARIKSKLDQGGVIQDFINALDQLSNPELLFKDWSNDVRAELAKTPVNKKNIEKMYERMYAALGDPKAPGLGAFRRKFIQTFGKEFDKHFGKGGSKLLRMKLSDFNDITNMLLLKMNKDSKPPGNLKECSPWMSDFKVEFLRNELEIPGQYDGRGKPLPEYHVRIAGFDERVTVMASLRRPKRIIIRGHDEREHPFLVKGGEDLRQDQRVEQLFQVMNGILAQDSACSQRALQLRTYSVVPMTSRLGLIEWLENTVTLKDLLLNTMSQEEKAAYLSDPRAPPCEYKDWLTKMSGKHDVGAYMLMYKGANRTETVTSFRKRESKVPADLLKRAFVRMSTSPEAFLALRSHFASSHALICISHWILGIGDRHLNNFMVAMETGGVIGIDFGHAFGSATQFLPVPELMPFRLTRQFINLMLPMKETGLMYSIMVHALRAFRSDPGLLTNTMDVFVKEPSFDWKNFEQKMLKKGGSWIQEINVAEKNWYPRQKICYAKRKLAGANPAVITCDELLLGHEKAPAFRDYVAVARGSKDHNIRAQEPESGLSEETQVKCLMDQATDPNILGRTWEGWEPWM
# What was measured:
# [1] = target: DNA-PK (Homo sapiens (Human), UniProt P78527); assay: DNA-PK assay (biochemical), flashplate 33P-ATP kinase assay; conditions: enzymatic; 5 μM ATP
# Procedure: A) DNA-PK Assay (Biochemical)
# The kinase assay was carried out in streptavidin-coated […] microtitre flashplates. […] The reaction was stopped using 50 μl/well of 200 mM EDTA. After incubation for a further 30 min at room temperature, the liquid was removed. Each well was washed three times with 100 μl of 0.9% saline solution. A nonspecific reaction (blank value) was determined using 10 μM of an innate kinase inhibitor. The radioactivity measurement was carried out using a TopCount. IC50 values were calculated in RS1.
# [2] = target: DNA-PK phosphorylation at serine 2056 (Homo sapiens (Human), UniProt P78527); assay: DNA-PK phosphorylation at serine 2056 (cellular), bleomycin-treated HCT116 cells, ELISA; format: cell-based; conditions: 10 μM bleomycin, six hours, read-out: IC50 pDNA-PK
# Procedure: HCT116 cells were cultivated at 37° C. and 10% CO2 in MEM alpha medium with 10% of foetal calf serum and 2 mM glutamine. The cells were detached from the base of the culture vessels with the aid of trypsin/EDTA, centrifuged off in centrifuge tubes, taken up in fresh medium, and the cell density was determined. 100,000 cells were sown in 1 ml of culture medium per cavity of a 24-well cell culture plate and cultivated overnight. Next day, 10 μM bleomycin (DNA intercalator and inductor of DNA double-strand breaks) and test substances in fresh culture medium were added to the cells, and these were cultivated for a further six hours. […] The 96-well ELISA plates were subsequently treated with a detection antibody (Abcam ab79444: total DNA-PK) and a streptavidin-HRP conjugate. The development of the enzymatic reaction was carried out with the aid of a chemiluminescent reagent, the chemiluminescence was measured with the aid of a Mithras LB940. The signals with the phospho-DNA-PK-specific antibody were standardised to the signal with the antibody against the total protein DNA-PKc. […] The DMSO control was used as blank.
SMILES,IC50 [1],IC50 [2]
"COc1ccc(C(O)c2cc(-c3ncnc4cc(N5CCOCC5)ccc34)c(F)cc2F)nn1 (stereo not drawn) [Example 131, [2,4-Difluoro-5-(7-morpholin-4-yl-quinazolin-4-yl)-phenyl]-(6-methoxy-pyridazin-3-yl)-methanol]",3 to 7 nM,0.5 to 5 µM
"COc1ccc(C(O)c2cc(-c3ncnc4cc(N5CCOCC5)ccc34)c(F)cc2F)nn1 (single isomer, unassigned) [Example 129, [2,4-Difluoro-5-(7-morpholin-4-yl-quinazolin-4-yl)-phenyl]-(6-methoxy-pyridazin-3-yl)-methanol]",7 to 30 nM,5 to 10 µM
"COc1ccc(C(O)c2cc(-c3ncnc4cc(N5CCOCC5)ccc34)c(F)cc2F)nn1 (single isomer, unassigned) [Example 130, [2,4-Difluoro-5-(7-morpholin-4-yl-quinazolin-4-yl)-phenyl]-(6-methoxy-pyridazin-3-yl)-methanol]",< 3 nM,< 0.5 µM
